pKd: −log10 of the molar value.
Tests used:
Porcine TNFα (porcine) = Porcine TNFα (porcine) (UniProt P23563); assay: SPR (Biacore T200), antibody captured via Fc, TNFα as analyte, 25 C
Canine TNFα (canine) = Canine TNFα (canine) (UniProt P51742); assay: as above
Macaque TNFα (macaque) = assay: as above
[1] = target: Transmembrane TNFα on CHO/DG44-tm TNFα cells; assay: cell-based or functional assay
Rat TNFα (rat) = Rat TNFα (rat) (UniProt P16599); assay: SPR (Biacore T200), antibody captured via Fc, TNFα as analyte, 25 C; ka and kd ND
Rabbit TNFα (rabbit) = Rabbit TNFα (rabbit) (UniProt P04924); assay: as above

“Vectorized full-length adalimumab IgG expressed from pAAV.CAG.Adalimumab.IgG / AAV8.CAG.adalimumab.IgG (antibody)” was tested, and the pKd (Porcine TNFα (porcine)) was 8.69, the pKd (Canine TNFα (canine)) was 8.81 and the pKd (Macaque TNFα (macaque)) was 9.14. The ADCC EC50 (target cell lysis, PBMC effector cells, E/T 25:1) [1] was 0.0168 µg/mL, the ADCC Top (best-fit maximum % target cell lysis) (% target cell lysis) [1] was 30.3 and the CDC Bottom (best-fit value, four-parameter dose-response, 5% NHSC) (% target cell lysis) [1] was 3.1. For the same substance, the CDC EC50 (target cell lysis, 5% normal human serum complement) [1] was 8.41 µg/mL, the CDC LogEC50 (best-fit value, four-parameter dose-response, 5% NHSC) [1] was 0.925 log10(µg/mL) and the CDC Span (best-fit value, Top minus Bottom, 5% NHSC) (% target cell lysis) [1] was 86.2. It also gave a CDC Top (best-fit maximum % target cell lysis) (% target cell lysis) [1] of 89.3, a pKd (Rat TNFα (rat)) of 6.14 and a pKd (Rabbit TNFα (rabbit)) of 6.21.
“Adalimumab (commercial adalimumab, HUMIRA) (antibody)” gave a pKd (Porcine TNFα (porcine)) of 8.66, a pKd (Canine TNFα (canine)) of 8.83 and a pKd (Macaque TNFα (macaque)) of 9.11. The ADCC EC50 (target cell lysis, PBMC effector cells, E/T 25:1) [1] was 0.0129 µg/mL, the ADCC Top (best-fit maximum % target cell lysis) (% target cell lysis) [1] was 46.7 and the CDC EC50 (as told in the text, differs from Table 15) [1] was 0.44 µg/mL. The CDC EC50 (target cell lysis, 5% NHSC) [1] was 0.44 µg/mL, the CDC EC50 (target cell lysis, 5% normal human serum complement) [1] was 0.758 µg/mL and the CDC LogEC50 (best-fit value, four-parameter dose-response, 5% NHSC) [1] was -0.12 log10(µg/mL). It also gave a CDC Span (best-fit value, Top minus Bottom, 5% NHSC) (% target cell lysis) [1] of 92.1, a CDC Top (best-fit maximum % target cell lysis) (% target cell lysis) [1] of 96.7 and a pKd (Rat TNFα (rat)) of 6.17. It also gave a pKd (Rabbit TNFα (rabbit)) of 6.28.

Source: patent US20230391864A1
